This passage reports fold change (FC) results from ChEMBL document CHEMBL6153133, “Discovery of Diphenyl Ether Derivatives as Novel BKCa Channel Activators: Structure-Activity Relationship, Cryo-EM Complex Structures, and In Vivo Animal Studies” (J Med Chem, 2025).

Chains of the proteins cited; added tags and fusions are not shown.
Calcium-activated potassium channel subunit alpha-1 (Homo sapiens), Q12791, UniProt Q12791, whole entry, looked up, stated change not applied: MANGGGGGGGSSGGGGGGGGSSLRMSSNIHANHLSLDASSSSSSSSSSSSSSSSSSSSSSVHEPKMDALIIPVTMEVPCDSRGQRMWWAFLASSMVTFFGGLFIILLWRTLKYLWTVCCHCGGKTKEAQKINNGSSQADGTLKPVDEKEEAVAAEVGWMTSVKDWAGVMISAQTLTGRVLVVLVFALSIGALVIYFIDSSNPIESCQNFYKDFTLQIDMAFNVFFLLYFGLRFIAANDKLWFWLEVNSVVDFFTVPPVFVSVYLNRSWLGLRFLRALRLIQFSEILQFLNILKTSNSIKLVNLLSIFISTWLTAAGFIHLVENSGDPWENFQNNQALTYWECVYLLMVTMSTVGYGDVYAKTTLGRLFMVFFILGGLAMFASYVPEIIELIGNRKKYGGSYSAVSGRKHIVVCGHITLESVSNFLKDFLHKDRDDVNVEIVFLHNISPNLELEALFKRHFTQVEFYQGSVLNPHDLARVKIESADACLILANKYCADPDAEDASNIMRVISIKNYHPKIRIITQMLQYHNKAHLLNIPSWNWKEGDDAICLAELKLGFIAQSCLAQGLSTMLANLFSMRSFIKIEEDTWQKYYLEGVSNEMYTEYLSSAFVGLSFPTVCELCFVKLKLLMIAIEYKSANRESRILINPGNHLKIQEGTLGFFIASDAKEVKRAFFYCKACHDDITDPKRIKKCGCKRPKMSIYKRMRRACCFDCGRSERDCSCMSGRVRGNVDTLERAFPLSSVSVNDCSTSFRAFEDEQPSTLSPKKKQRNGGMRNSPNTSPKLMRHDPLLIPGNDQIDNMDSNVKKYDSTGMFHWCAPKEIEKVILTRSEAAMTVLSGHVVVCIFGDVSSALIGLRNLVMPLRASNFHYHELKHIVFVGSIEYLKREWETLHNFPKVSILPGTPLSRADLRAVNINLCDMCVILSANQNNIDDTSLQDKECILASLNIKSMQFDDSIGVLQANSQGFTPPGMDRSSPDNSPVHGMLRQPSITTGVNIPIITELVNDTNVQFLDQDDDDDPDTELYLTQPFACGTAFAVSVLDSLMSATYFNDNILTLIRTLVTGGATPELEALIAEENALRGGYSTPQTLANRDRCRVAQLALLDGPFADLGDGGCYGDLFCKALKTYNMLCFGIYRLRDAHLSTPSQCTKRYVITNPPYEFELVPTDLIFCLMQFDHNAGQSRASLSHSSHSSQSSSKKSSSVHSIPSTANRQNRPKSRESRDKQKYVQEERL

Molecules are shown by their SMILES.

The assay concerns Calcium-activated potassium channel subunit alpha-1 (Homo sapiens), Q12791 [UNDEFINED MUTATION]. Put plainly: Activation of hyperactive human BKca channel G803D/N806K mutant transfected in human AD-293 cells assessed as fold change in maximum relative fluorescence value at 5 uM preincubated for 15 mins followed by Tl+ stimulus buffer addition and measured after 80 sec by Flexstation3 multimode microplate reader analysis. It counts as cell-based. Conditions: filed as opener, time 980.0 sec.

Take `O=C(O)c1ccc(Cl)c2c1[nH]c1c3ccc(C(F)(F)F)cc3oc12`: the fold change (FC) was 3.8.
With `Nc1ccc(Oc2c(F)c(F)c(C(F)(F)F)c(F)c2F)c(O)c1`, the fold change (FC) came to 9.3.
